Results on one molecule are retold here after patent EP4834108A1, “AGENT FOR SHORTENING GROWTH PERIOD OF PLANT, FORMULATION FOR SHORTENING GROWTH PERIOD, AGENT FOR INDUCING EXPRESSION OF ANTHOGENESIS INDUCING GENE, METHOD FOR SHORTENING GROWTH PERIOD OF PLANT, PLANT, AGENT FOR MAKING GROWTH SPEED OF PLANT UNIFORM, AND METHOD FOR MAKING GROWTH SPEED OF PLANT UNIFORM” (dated 2026).

One assay has as its system tomato (Regina). Briefly: Experiment 1: number of days from sowing to flowering and to fruit setting of treated tomato. The conditions noted are these: mean of 6 plants; for Number of days to flowering: control group 1: 62; for Number of days to fruit setting: control group 1: 76. The method, then:
(§1) A treatment agent was prepared so that the L-form of ergothioneine (EGT) had the concentration below. A commercially available EGT was used, and pure water was used as a solvent.
In a pot having a diameter of 65 mm, 90 mL of seedling raising soil (available from TAKII & CO., LTD.) was placed, and tomato (Regina) seeds were sown to grow one tomato plant per pot. The cultivation conditions were set to a 16-hour light and 8-hour dark cycle in a growth chamber set at a room temperature of 22°C, with a light intensity of 5000 lx in the central part under fluorescent lamp irradiation. Bottom-watering was performed for irrigation.
After 28 days from sowing, the tomato seedlings were transplanted into pots with a diameter of 135 mm, filled with 900 g of seedling raising soil (available from TAKII & CO., LTD.), and further grown in a greenhouse set at a room temperature of 25°C. The number of days from sowing to flowering (number of days to flowering) and the number of days from sowing to fruit setting (number of days to fruit setting) were then recorded.
To the tomato seedlings grown in the growth chamber, 50 mL of 0.1 mM or 0.5 mM treatment agent was supplied in place of water, by bottom-watering after 22 days and 25 days from sowing. These were designated as treated groups 1-1 and 1-2, respectively.
The tomatoes were transplanted after 28 days from sowing, and 50 mL of 0.5 mM treatment agent was applied by soil drenching around the tomato roots after 33 days, 35 days, and 37 days from sowing, and this was designated as treated group 1-3.
In addition to the same treatment as in the treated group 3, 50 mL of a treatment agent having an EGT concentration of 0.5 mM was applied by soil drenching around the tomato roots after 39 days, 41 days, and 43 days from sowing, and this was designated as treated group 1-4.
Note that "control group 1" presented in Table 1 is a control group that has not been treated with the treatment agent, and "treated group 1-1" to "treated group 1-4" are treated groups that have been treated with the treatment agent. The numerical values for each evaluation item are the average value and standard deviation (SD) based on the number of test plants.

The next assay has as its system FT gene. The assay can be described thus: Experiment 3: transcriptome (microarray) analysis of treated Arabidopsis thaliana, FT gene expression. To be noted: 50 mL of 1 mM treatment agent by bottom-watering eight days after sowing, RNA extracted on day 20 after sowing. How it is done: as §1
In a plastic pot having a diameter of 60 mm and a height of 55 mm, granular soil (Kumiai horticultural soil) and vermiculite were mixed in a volume ratio of 3:1 and placed, and one Arabidopsis thaliana (Col-0) plant was sown per pot. Plastic deep dishes each having a diameter of 160 mm and a height of 28 mm were prepared, and six pots were respectively placed therein. They were placed in a thermostatic chamber set at a room temperature of 22°C with a 16-hour light and 8-hour dark cycle. The light conditions were set such that the light intensity was 5000 lx in the central part under fluorescent lamp irradiation. Bottom-watering was performed for irrigation, and the water level was set at about 5 mm.
After eight days from sowing, 50 mL of 1 mM treatment agent was supplied in place of water, by bottom-watering. Note that the group in which water was used in place of the aqueous solution of ergothioneine was designated as an untreated control group.
On day 20 after sowing, Arabidopsis thaliana was frozen with liquid nitrogen, total RNA was then extracted using NucleoSpin RNA Plant (Takara Bio Inc.), and transcriptome analysis was performed using Arabidopsis microarray Ver. 4.0 (Agilent Technologies, Inc.). […]

Setting [1] is: Treated group 1-1: 50 mL of 0.1 mM treatment agent by bottom-watering after 22 and 25 days from sowing.
Setting [2] is: Treated group 1-2: 50 mL of 0.5 mM treatment agent by bottom-watering after 22 and 25 days from sowing.
The mark [3] stands for this setting: Treated group 1-3: 50 mL of 0.5 mM treatment agent by soil drenching after 33, 35 and 37 days from sowing.
[4] abbreviates: Treated group 1-4: 50 mL of 0.5 mM treatment agent by soil drenching after 33, 35, 37, 39, 41 and 43 days from sowing.

Take `C[N+](C)(C)[C@@H](Cc1c[nH]c(=S)[nH]1)C(=O)[O-]`: the “Number of days to flowering” value in the assay with tomato (Regina) (setting [1]) was determined as 57 days; in the assay with tomato (Regina) (setting [2]), 57 days; in the assay on tomato (Regina) (setting [3]) it was 58 days; with tomato (Regina) (setting [4]), 59 days. Further, the “Number of days to fruit setting” value was 68 days in the assay on tomato (Regina) (setting [1]), 70 days in the assay on tomato (Regina) (setting [2]), 70 days with tomato (Regina) (setting [3]) and 74 days in the assay on tomato (Regina) (setting [4]). For the same molecule, in the assay with FT gene, the “amount of the transcription product of the FT gene, increase as compared with the untreated control” value came out at 2.4 times.
